How the values were obtained:
[1] = tested on: human tumor-infiltrating lymphocytes (TIL); assay: Rapid Expansion Protocol (REP) of TIL; format: cell-based; settings: day 42 (Pre-REP and REP)
Procedure: Rapid Expansion Protocol (REP) used OKT3 (anti-CD3) antibody (Thermo Fisher Scientific) and IL-2 in the presence of irradiated, allogeneic feeder cells (Astarte Biologics) at a 200:1 ratio of feeder cells to responding TIL cells. PBMC, OKT3 antibody (30 ng/mL), complete medium (“CM”), AIM V media (GIBCO/BRL), and TIL effector cells were combined, mixed, and aliquoted to a 75 cm^2 tissue culture flask. Flasks were incubated upright at 37° C. in 5% CO2. IL-2 (6000 IU/mL) and/or Cbl inhibitor (0.1, 1, 10 μM) were added on day 2. On day 5, culture supernatant was removed by aspiration and media was replaced with a 1:1 mixture of CM/AIM V containing 6000 IU/mL IL-2 and/or Cbl inhibitor. On day 6, and every day thereafter, cell concentration was determined, and cells were split into additional flasks with additional medium containing 6000 CU/mL IL-2/Cbl inhibitor as needed to maintain cell densities around 1×10^6 cells/mL. About 14 days after initiation of the REP, cells were harvested and cryopreserved for future experimental analysis.
Only TIL that expanded during the pre-REP protocol were further expanded in the REP protocol: TIL1, TIL3, TIL4 & TIL6. The magnitude of TIL expansion during the REP varied between the tumor samples. For this reason, the total cell numbers are shown in Table 3 as a percentage of the IL-2 alone condition during the REP expansion protocol.

CD8+ and CD4+ TIL = assay: CD107a and granzyme B in TIL after anti-CD3/CD28 stimulation; format: cell-based, human; settings: expanded with IL2; anti-CD3/CD28 6 hours
Procedure: To investigate whether expanded TIL are capable of responding to extracellular stimulation, TIL were stimulated with anti-CD3/CD28 for 6 hours in the presence of secretion inhibitors and anti-CD107a. […] Upon stimulation, an average of 40% of CD8^+ TIL expanded with IL2 were positive for CD107A expression, and greater than 60% of CD8^+ TIL expanded with IL2+ compound 103 were capable of producing CD107a (FIG. 27A). Upon stimulation, an average of 50% of CD4^+ TIL expanded with IL2 were positive for CD107A expression, and greater than 60% of CD4^+ TIL expanded with IL2+ compound 103 were capable of producing CD107a (FIG. 27B).
In the context of cytotoxicity, granzyme B (Grb), a protease secreted to mediate apoptosis, was assessed. […] From this, we conclude that Cbl inhibitor appears to expand TIL with increased cytotoxic potential.

[2] = tested on: human tumor-infiltrating lymphocytes (TIL); assay: Flow cytometry immunophenotyping of expanded TIL; format: cell-based; settings: TIL1 population; IL-2 alone; day 28
Procedure: (§1) For TIL generation, single 8 mm^3 tumor fragments were added to each well of a 24-well plate containing 2 mL RPMI medium containing 25 mM HEPES, 10% heat inactivated human AB serum, 100 U/mL penicillin, 100 μg/ml streptomycin, 2 mM L-glutamine, 10 μg/ml gentamycin and 0.25 μg/ml Fungizone (Complete Medium; CM) with either 6000 IU/mL IL-2 in the presence or absence of 0.1-10 μM of a Cbl inhibitor, or with 0.1-10 μM of the Cbl inhibitor alone. The plates were placed in a humidified 37° C. incubator with 5% CO2. Half of the medium was replaced every two days after culture initiation. As wells became confluent, the contents were mixed vigorously, split into two daughter wells, and filled to 2 mL per well with RPMI medium with either 6000 IU/mL IL-2 in the presence or absence of 0.1-10 μM of the Cbl inhibitor, or with 0.1-10 μM of the Cbl inhibitor alone. Subsequently, half the media was replaced thrice weekly, cultures were split to maintain a cell density of 1×10^6 cells/mL. […] Mitochondrial markers including, Mitotracker, Mitoprobe, and 2-NBDG may also be used to assess differentiation and/or activation of cells. The initial TIL generation step may be shortened from 28 days to between about 7-11 days with similar results.
T lymphocytes were defined based on lineage and differentiation marker expression according to the developmental model (Restifo, Blood, 124:476-477, 2014), as shown in Table 4. […] Monocytes (CD14+), B cells (CD20+) and NK cells (CD56+) accounted for <10% of the total number of cells.

[3] = tested on: human tumor-infiltrating lymphocytes (TIL); assay: Ex vivo expansion of TIL from human tumor fragments (pre-REP); format: cell-based; settings: day 17
Procedure: Samples of human ovarian and colon tumors were obtained from the Cooperative Human Tissue Network (CHTN, c/o Vanderbilt University Medical Center, Nashville, TN). Solid tumor specimens were carefully dissected free of surrounding fatty and necrotic areas. The tumors were sliced into 8 mm^3 (2×2×2 mm^3) fragments under sterile conditions using a scalpel and a scalpel holder.
as §1

CD4/8+ T cells = assay: Intracellular IFN-γ after PMA/ionomycin stimulation of expanded T cells; format: cell-based, human; settings: IL-2 expanded T cells; PMA/ionomycin 6 h
Procedure: T cell activity was determined by analysis of cytokine secretion. To investigate whether these expanded T cells are capable of responding to extracellular stimulation, T cells were stimulated with 25 ng/mL phorbol myristate acetate (PMA) and 0.5 μM ionomycin. After 90 min of stimulation, monensin, 1:50, (GolgiStop, BD Biosciences) was added. After 6 h, cells were stained for surface expression of CD4+, CD8+, CD45RA+, CD95+, CCR7+, CD62L+, and subsequently, fixed, permeabilized and stained for intracellular cytokine, IFN-γ. After 6 hr, we observed a clear increase in accumulated intracellular IFN-γ, an important effector of the anti-tumor response when T cells had been expanded with IL-2 and Cbl inhibitor.

[4] = tested on: human T cells from peripheral blood mononuclear cells; assay: Expansion of CMV pp65 reactive T cells from peripheral blood mononuclear cells; format: cell-based
Procedure: (§2) CMV pp65 (495-503) reactive T cells were expanded by thawing CMV seropositive donors (Conversant) and 2×10^6 cells/ml were resuspended in RPMI medium (Gibco) supplemented with 1% GlutaMax (Gibco), 1% non-essential amino acids (NEAA), penicillin/streptomycin (Gibco), 10% heat inactivated human AB serum (Corning), 1 μg/ml CMV pp65 (495-503) (Anaspec), 2 ng/mL IL-2 (R&D), and/or Cbl inhibitor (01, 1, 10 μM). PBMCs were cultured for eight days with IL-2 and/or Cbl inhibitor and replenished at day three and day five. At day eight, cells were harvested, and re-plated in low dose IL-2 (100 U/ml) and/or Cbl inhibitor at 2 million/ml in complete RPMI media for two days. At day eleven, cells were pooled and counted, and immunophenotyped at day 11 by flow cytometry by measuring expression of lineage (CD4, CD8) and differentiation (including CD45RA, CD45RO, CD95, CCR7, CD62L, TCF1, PD-1, TIM3, LAG3) markers.

[5] = tested on: human T cells from peripheral blood mononuclear cells; assay: Flow cytometry immunophenotyping of T cells expanded from donor PBMC; format: cell-based; settings: IL-2 alone, day 11
Procedure: as §2
T lymphocytes were defined based on lineage and differentiation marker expression according to the developmental model (Restifo, Blood, 124:476-477, 2014), as shown in Table 4.

IL-2: cytokine used as standard comparator for ex vivo expansion of TIL and T cells
Expansion of TIL (REP), total cell number relative to IL-2 alone ([1]; TIL1 (ovary)): 100% | Expansion of TIL (REP), total cell number relative to IL-2 alone ([1]; TIL3 (ovary)): 100% | Expansion of TIL (REP), total cell number relative to IL-2 alone ([1]; TIL4 (colon)): 100% | Expansion of TIL (REP), total cell number relative to IL-2 alone ([1]; TIL6 (ovary)): 100% | CD4+ TIL positive for CD107A expression (CD8+ and CD4+ TIL): 50% | CD8+ TIL positive for CD107A expression (CD8+ and CD4+ TIL): 40% | CD4 TCM CD62L+ CCR7+, percentage of total TIL cell number [2]: 1.8% | CD4 TEM CD62L− CCR7−, percentage of total TIL cell number [2]: 48.9% | CD8 TCM CD62L+ CCR7−, percentage of total TIL cell number [2]: 4.2% | CD8 TEM CD62L− CCR7−, percentage of total TIL cell number [2]: 48.7% | Expansion of TIL, total cell number relative to IL-2 alone ([3]; TIL1 (ovary)): 100% | Expansion of TIL, total cell number relative to IL-2 alone ([3]; TIL2 (ovary)): 100% | Expansion of TIL, total cell number relative to IL-2 alone ([3]; TIL3 (ovary)): 100% | Expansion of TIL, total cell number relative to IL-2 alone ([3]; TIL4 (colon)): 100% | Expansion of TIL, total cell number relative to IL-2 alone ([3]; TIL5 (ovary)): 100% | Expansion of TIL, total cell number relative to IL-2 alone ([3]; TIL6 (ovary)): 100% | CD4/8+ T cells positive for IFN-γ expression (CD4/8+ T cells): approximately 50% | Expansion of T cells from PBMC, total cell number relative to IL-2 alone ([4]; Donor 1, day 11): 100% | Expansion of T cells from PBMC, total cell number relative to IL-2 alone ([4]; Donor 2, day 11): 100% | Expansion of T cells from PBMC, total cell number relative to IL-2 alone ([4]; Donor 3, day 11): 100% | CD4 TCM, percentage of total cell number [5]: 43.2% | CD4 TEM, percentage of total cell number [5]: 24.9% | CD4 TSCM, percentage of total cell number [5]: 16.9% | CD8 TCM, percentage of total cell number [5]: 25.4% | CD8 TEM, percentage of total cell number [5]: 11% | CD8 TSCM, percentage of total cell number [5]: 39.9%
